Assay results published in patent publication US9758505B2, “3-(indol-3-yl)-pyridine derivatives, pharmaceutical compositions and methods for use” (ITEOS THERAPEUTICS, priority 2014, dated 2017).

Amino acid sequences for entries named in this document (tags omitted). A change or cut given only in a name is not applied to a line headed by its entry.
UniProt P48776: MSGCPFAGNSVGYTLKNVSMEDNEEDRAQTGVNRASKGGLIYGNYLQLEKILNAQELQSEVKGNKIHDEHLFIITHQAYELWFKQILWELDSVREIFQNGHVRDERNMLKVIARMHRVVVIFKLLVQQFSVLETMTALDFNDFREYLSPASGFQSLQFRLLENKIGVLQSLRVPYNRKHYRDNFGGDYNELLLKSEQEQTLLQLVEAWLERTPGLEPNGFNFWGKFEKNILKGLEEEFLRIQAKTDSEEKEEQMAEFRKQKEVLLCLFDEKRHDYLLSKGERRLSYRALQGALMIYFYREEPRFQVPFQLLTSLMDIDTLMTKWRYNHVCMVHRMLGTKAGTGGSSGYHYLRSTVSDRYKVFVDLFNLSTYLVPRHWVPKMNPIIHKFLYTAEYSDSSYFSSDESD

Target: TDO2 (Mus musculus (Mouse), UniProt P48776)
Test: Pharmacodynamic assay for TDO2 in vivo activity: increase of blood tryptophan levels in mice
Conditions: female BALB/c mice, 2 h
Excerpt: The compounds of the present invention increase the amount of Tryptophan in mouse blood.

- Tryptophan concentration in plasma (average ± standard error of the mean) (30 mg/kg oral gavage): 41632 ± 1675
- increase of circulating Tryptophan compared to vehicle-treated controls (30 mg/kg oral gavage): 89%
- Tryptophan concentration in plasma (average ± standard error of the mean) (60 mg/kg oral gavage): 52146 ± 2042
- increase of circulating Tryptophan compared to vehicle-treated controls (60 mg/kg oral gavage): 137%
- Tryptophan concentration in plasma (average ± standard error of the mean) (100 mg/kg oral gavage): 53447 ± 1695
- increase of circulating Tryptophan compared to vehicle-treated controls (100 mg/kg oral gavage): 143%
Compound: O=S(=O)(c1ccc(-c2c[nH]c3cc(F)ccc23)cn1)N1CCNCC1 [Example 87, 6-fluoro-3-(6-(piperazin-1-ylsulfonyl)pyridin-3-yl)-1H-indole]
